The Kd is the concentration at which binding is half-saturated. The low end stands for higher affinity, the high end for lower affinity. One may read the IC50 as the concentration that inhibits the measured activity by half.

Assay [1] has as its target T1, human BCMA on cells (human, UniProt Q02223 1-184).
T1 construct: also called hBCMA; BCMA on NCI-H929, ARP-1, OPM-2, U266B1, MM.1S, RPMI-8226 cells
T1 sequence: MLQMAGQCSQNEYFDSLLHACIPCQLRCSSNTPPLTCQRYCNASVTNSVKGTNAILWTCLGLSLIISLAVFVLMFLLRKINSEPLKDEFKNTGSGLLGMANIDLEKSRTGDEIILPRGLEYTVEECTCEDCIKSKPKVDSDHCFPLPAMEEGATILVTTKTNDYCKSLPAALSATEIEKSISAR
The assay can be described thus: FACS, U266B1 cells. The protocol:
Cells were analyzed using a BD FACS Canto system. Fluorescence-activated cell sorting (FACS) data were analyzed using Flowjo software to calculate mean fluorescence intensity (MFI) (n=3 replicates) and data (mean MFI+/−standard error of the mean [SEM] versus nM of the antibody) was generated using the GraphPad Prism software.
In general terms: Flow cytometry measures light scatter and fluorescence of single cells or particles in a stream.

For assay [2], the target named is T2, Recombinant human BCMA ECD protein (Acro Biosystems) (human, UniProt Q02223 1-54).
T2 construct: also called recombinant BCMA
T2 sequence: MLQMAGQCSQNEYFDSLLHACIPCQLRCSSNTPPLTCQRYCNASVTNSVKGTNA
Briefly: competition ELISA, coated BCMA ECD, competitor BAFF 1 ng/ml, Experiment No.2.

In assay [3] the target is T2, Recombinant human BCMA ECD protein …. The assay can be described thus: competition ELISA, coated BCMA ECD, competitor APRIL 10 ng/ml, Experiment No.1. For orientation: ELISA stands for enzyme-linked immunosorbent assay.
The target is the same in assay [4]. Briefly: competition ELISA, coated BCMA ECD, competitor APRIL 10 ng/ml, Experiment No.2.
In assay [5] the target is T1, human BCMA on cells. The assay can be described thus: FACS, 293T-hBCMA cells.
Assay [6] addresses T2, Recombinant human BCMA ECD protein …. Briefly: competition ELISA, coated BCMA ECD, competitor BAFF 1 ng/ml, Experiment No.1.

B1: 2265-F02 Y180/F404 (unconjugated Ab) (antibody, human IgG1, kappa, V domains shown)
VH: EVQLVESGGGLVQPGGSLRLSCAASGFNISAPGIHWVRQAPGKGLEWVGFINPAGGYTDYADSVKGRFTISADTSKNTAYLQMNSLRAEDTAVYYCARDYIRQYWTYVLDYWGQGTLVTVSS
VL: not shown
modifications: p-azidomethyl-phenylalanine in place of HC-Y180 and HC-F404 (EU numbering), unconjugated
notes: also called unconjugated anti-BCMA antibody, 2265-F02; unconjugated antibody version of Conjugate 4
The molecule B1 returned a Kd in the assay with human BCMA on cells [1] of 1.4 nM. That is a single-digit nanomolar value.

B2: Conjugate 4 (antibody, human IgG1, kappa, V domains shown)
VH: EVQLVESGGGLVQPGGSLRLSCAASGFNISAPGIHWVRQAPGKGLEWVGFINPAGGYTDYADSVKGRFTISADTSKNTAYLQMNSLRAEDTAVYYCARDYIRQYWTYVLDYWGQGTLVTVSS
VL: not shown
modifications: p-azidomethyl-phenylalanine in place of HC-Y180 and HC-F404 (EU numbering), each bonded to a non-cleavable maytansine linker-warhead (Conjugate M); DAR4
notes: also called Conjugate 4 ADC; SP8919 ADC
As to B2, the IC50 is 6.9 nM in assay [2], 8.3 nM in assay [3], 8.9 nM in assay [4] and 6.8 nM in assay [6]. This molecule also yielded a dissociation constant (Kd) in the assay with human BCMA on cells [5] of 1.4 nM.
